What was measured:
B. canis [1] = type: cell-based; conditions: suspension culture
B. canis [2] = tested on: B. canis; set-up: species or system B. canis ATCC 23365; conditions: in vivo

In the case of `NC[C@H]1O[C@H](O[C@H]2[C@H](O)[C@@H](O[C@H]3O[C@H](CO)[C@@H](O)[C@H](N)[C@H]3O)[C@H](N)C[C@@H]2N)[C@H](O)[C@@H](O)[C@@H]1O` [Kanamycin], the “Killing of B. canis in vitro” value (B. canis [1]) is reported as “kill B. canis in vitro” and the “Colony-Forming Units B. Canis Per Spleen” value (B. canis [2]) is reported as 2.72 ± 0.91 × 10^5.

— US4522803A (priority 1983, dated 1985)
